These are literature values, as cited in patent US20140274800A1, “TRANSCRIPTION FACTOR DECOYS FOR THE TREATMENT AND PREVENTION OF INFECTIONS CAUSED BY BACTERIA INCLUDING CLOSTRIDIUM DIFFICILE” (PROCARTA BIOSYSTEMS LTD., priority 2013, published 2014).

The conditions of the series: in mice; cited from earlier work.

Take `Cc1cc(N)c2ccccc2[n+]1CCCCCCCCCC[n+]1c(C)cc(N)c2ccccc21` [dequalinium]: the MTD is recorded as 15 mg/kg.
